Assay results as given in paper PMC8016844, “Grb2 binding induces phosphorylation-independent activation of Shp2” (Communications Biology, 2021).

Biological target: T1, Shp2 N-terminal SH2 domain (Shp2_(NSH2)) (UniProt Q06124 6-102)
T1 construct: Shp2 (PTPN11), N-terminal SH2 domain; Atto 488 labelled in MST; uniformly 15N-labelled in the NMR titration; Perturbed residues up to Y100 are named, so the construct reaches at least residue 100; also called Shp2-NSH2 domain; source: E. coli BL21 (DE3), pET28b, purified (Talon buffers, Superdex SD75)
T1 sequence (looked up): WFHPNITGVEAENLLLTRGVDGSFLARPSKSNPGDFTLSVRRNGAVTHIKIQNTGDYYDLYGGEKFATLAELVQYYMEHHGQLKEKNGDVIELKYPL
Assay: MST; target protein labelled with Atto 488 NHS ester, 100 nM; unlabelled ligand serially diluted; Monolith NT.115; 25 °C; 20 mM HEPES pH 7.5, 150 mM NaCl, 0.5 mM TCEP, 0.005% Tween 20
Settings: both partners purified

- Kd: 33.8 ± 4.5 µM
B1: isolated SH2 domain of Grb2 (Grb2SH2) (domain or fragment, UniProt P62993 60-152, looked up)
chain: WFFGKIPRAKAEEMLSKQRHDGAFLIRESESAPGDFSLSVKFGNDVQHFKVLRDGAGKYFLWVVKFNSLNELVDYHRSTSVSRNQQIFLRDIE
notes: Grb2, SH2 domain; The methods list only GST fusions of the Grb2 domains; source: E. coli BL21 (DE3)
